Data reported in PubChem BioAssay AID720514 (Broad Institute, 2013).
The list shows a part of the results, in another mix than the full data. Measured potencies and affinities stand elsewhere. The source made the active and inactive calls.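 The calls were made as follows: active = every replicate test run called active, with the signal falling and half-maximal concentration within twice the top valid dose; inconclusive = the replicate test runs disagree in their calls; inactive = every test run inactive, including effects in the opposite direction.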

Test: inhibitors of PGC1a acetylation in cells, dose response, cell-based, cherry-picked samples (AID 720514);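 also: 0% = neutral control wells and -100% = positive control wells; actives lower the acetylation signal so they count as inhibitors of PGC1a acetylation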
Conditions: U2OS PGC1a acetylation, AlphaLISA, overnight; at 19.5 µM (top of the series) unless noted

Compound | activity change, negative = inhibition
O=c1[nH]c2ccccc2n1C1CCN(C(c2ccccc2OC(F)(F)F)c2nnnn2C2CCCC2)CC1 (configuration not stated) | inactive: 68.9% [at 10 µM]
O=c1[nH]c2ccccc2n1C1CCN(C(c2ccccc2OC(F)(F)F)c2nnnn2C2CCCCC2)CC1 (configuration not stated) | inactive: 46%
